Source: ChEMBL document CHEMBL1130264 (J Med Chem, 1997)

Target: Neuronal acetylcholine receptor
Test: Compound was evaluated for functional potency and efficacy at rat Nicotinic acetylcholine receptor in PC12 cells (ganglionic)
Assay type: cell-based
Conditions: pc-12

CNC1(C)C2CCC(C2)C1(C)C (stereo unspecified) [MECAMYLAMINE]
EC50: 200 nM
